Laboratory results reported in ChEMBL document CHEMBL3997828, “Investigation of orexin-2 selective receptor antagonists: Structural modifications resulting in dual orexin receptor antagonists” (Bioorg Med Chem Lett, 2017).

By UniProt entry, the sequences of proteins in these tests, tags left out.
UniProt O43613, whole entry: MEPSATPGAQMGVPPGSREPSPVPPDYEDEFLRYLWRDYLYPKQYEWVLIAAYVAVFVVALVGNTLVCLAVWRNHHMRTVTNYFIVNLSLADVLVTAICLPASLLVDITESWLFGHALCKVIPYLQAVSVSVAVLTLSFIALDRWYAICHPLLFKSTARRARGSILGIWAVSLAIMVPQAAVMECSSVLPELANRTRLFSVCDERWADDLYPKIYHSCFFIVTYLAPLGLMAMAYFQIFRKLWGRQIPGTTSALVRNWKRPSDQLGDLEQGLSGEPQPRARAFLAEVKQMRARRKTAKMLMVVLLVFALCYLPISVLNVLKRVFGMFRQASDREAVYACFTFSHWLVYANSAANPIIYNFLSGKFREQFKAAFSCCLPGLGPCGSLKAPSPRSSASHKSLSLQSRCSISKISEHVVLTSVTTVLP

Molecular target: Orexin/Hypocretin receptor type 1 (Homo sapiens, UniProt O43613)
Assay: Antagonist activity at human OX1R expressed in CHOK1 cells assessed as reduction in orexin A-induced calcium flux preincubated followed by orexin A addition by FLIPR assays
Type: functional, cell-based

SMILES	IC50
COc1ccc(C(=O)N2C[C@H](Oc3nccc(C#N)c3C)CC[C@H]2C)c(C2CC2)n1	> 10 µM
COc1ccc(C(=O)N2C[C@H](Oc3nccc(C#N)c3C)CC[C@H]2C)c(-c2ccncc2)n1	> 10 µM
COc1ccc(C(=O)N2C[C@H](Oc3nccc(C#N)c3C)CC[C@H]2C)c(-n2nccn2)c1	6.12 µM
Cc1c(C#N)ccnc1O[C@@H]1CC[C@@H](C)N(C(=O)c2ccccc2OC(F)(F)F)C1	1.97 µM
Cc1c(C#N)ccnc1O[C@@H]1CC[C@@H](C)N(C(=O)c2ccncc2-c2ccccc2)C1	4.45 µM
